Values joined by “and” are separate entries in the source; they are usually repeats but may differ in a detail not shown here. Equal entries are not always repeated.
T1: CynoTREM1 (as named in Table 3) (cynomolgus)
T1 construct: also called cynomolgus TREM-1
T1 chain: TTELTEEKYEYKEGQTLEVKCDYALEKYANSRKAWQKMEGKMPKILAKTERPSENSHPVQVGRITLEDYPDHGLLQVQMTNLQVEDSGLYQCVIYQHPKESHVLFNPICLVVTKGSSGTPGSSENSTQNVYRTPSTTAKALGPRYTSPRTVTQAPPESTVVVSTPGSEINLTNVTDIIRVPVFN

Protein sequences, listed by entry. Tags and fused reporters are not part of them. Residues count along the entry.
UniProt Q9NP99, 21-205 limits assumed: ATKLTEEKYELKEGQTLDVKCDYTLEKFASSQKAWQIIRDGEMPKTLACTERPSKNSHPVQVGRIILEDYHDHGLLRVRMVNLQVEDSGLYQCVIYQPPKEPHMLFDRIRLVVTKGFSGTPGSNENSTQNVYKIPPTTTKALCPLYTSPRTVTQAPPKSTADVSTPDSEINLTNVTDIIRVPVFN
UniProt Q9NP99, 21-234 limits assumed: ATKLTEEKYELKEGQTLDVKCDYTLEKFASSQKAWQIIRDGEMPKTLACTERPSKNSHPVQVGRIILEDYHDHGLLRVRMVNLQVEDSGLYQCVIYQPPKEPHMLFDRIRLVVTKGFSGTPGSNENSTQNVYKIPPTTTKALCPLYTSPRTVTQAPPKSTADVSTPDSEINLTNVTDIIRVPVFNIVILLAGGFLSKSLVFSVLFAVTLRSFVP

T2: cynomolgus TREM-1 on cells (cynomolgus)
T2 construct: Endogenous receptor in dosed monkeys; also called TREM-1 receptors on peripheral blood monocytes and granulocytes of cynomolgus monkeys
T2 chain: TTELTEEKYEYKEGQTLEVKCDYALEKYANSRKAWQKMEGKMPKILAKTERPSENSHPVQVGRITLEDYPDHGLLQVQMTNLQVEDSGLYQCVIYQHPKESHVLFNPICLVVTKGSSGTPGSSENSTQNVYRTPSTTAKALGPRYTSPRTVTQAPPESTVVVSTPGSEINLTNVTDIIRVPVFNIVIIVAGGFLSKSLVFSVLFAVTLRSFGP


Columns and labels:
human TREM-1-Fc = target: T3, human TREM-1-Fc (human, UniProt Q9NP99 21-205, limits assumed); experiment: SPR kinetics (Example 1): anti-TREM-1 antibody captured on the chip, human TREM-1-Fc as analyte, 1:1 fit
T3 construct: also called hTREM-1; not shown: Fc part
Experimental: Binding studies were performed on a ProteOn Analyzer (BioRad) that measures molecular interactions in real time through surface plasmon resonance. Experiments were run at 25° C. and the samples were stored at 15° C. in the sample compartment. The signal (RU, response units) reported by the ProteOn is directly correlated to the mass on the individual sensor chip surfaces in the six parallel flow cells. Anti-human Fe monoclonal or anti-murine Fc polyclonal antibody from Biacore human or mouse Fc capture kits were immobilized in horizontal direction onto flow cells of a GLM sensor chip according to the manufacturer's instructions. The final immobilization level of capture antibody was approximately 2600-6000 RU in each experiment. The capture of purified monoclonal mouse or recombinantly expressed anti-hTREM-1 antibodies was conducted by diluting the antibodies to 5-10 nM into running buffer (10 mM Hepes 0.15 M NaCl, 5 mM EDTA, 0.05% surfactant P20, pH 7.4) followed by injection in vertical direction at 30 l/min for 60 see, creating reference interspots adjacent to all flow cells with only anti-Fc antibody immobilized. […] Binding of hTREM-1 or cTREM-1 proteins was conducted by injecting analyte (antigen) over all flow cells in horizontal direction to allow for comparative analyses of binding to different captured anti-TREM-1 antibodies relative to binding to the reference interspot. hTREM-1 or cTREM-1 proteins were diluted serially 1:3 to 1.2-100 nM or into running buffer, injected at 100 l/min for 250 s and allowed to dissociate for 600s. The GLM surface was regenerated after each injection cycle of analyte via two 18 s injections of 10 mM Glycine, pH 1.7 and 50 mM NaOH at 100 l/min. This regeneration step removed the anti-TREM-1 antibody and any bound TREM-1 protein from the immobilized capture antibody surface and allowed for the subsequent binding of the next interaction sample pair.

[1] = target: T1, CynoTREM1 (as named in Table 3); experiment: SPR (Biacore)
[2] = target: T4, huTREM1 (as named in Table 3) (human, UniProt Q9NP99 21-205, limits assumed); experiment: SPR (Biacore)
T4 construct: also called human TREM-1

[3] = target: T2, cynomolgus TREM-1 on cells; experiment: estimate of the 2-compartment PK model with TMDD fitted to cynomolgus PK/RO/PD data (mAb off-rate from TREM-1)
From the text: Monkey PK, RO, total receptor levels, and PD data were described using a 2-compartment PK model with saturable target-mediated drug disposition (TMDD) in the central compartment to accommodate for the observed non-linear PK (see Example 12 and FIG. 13). A direct-effect inhibitory model was used to describe the PD response. This model was able to effectively capture the time course of PK/RO/PD observed in the monkeys. The observed (open circle) and model-predicted endpoints (solid line) are provided in FIGS. 16A (0.1 mg/kg subcutaneous dosing) and 16B (10 mg/kg subcutaneous dosing).

human TREM-1 on cells [4] = target: T5, human TREM-1 on cells (human, UniProt Q9NP99 21-234); experiment: cell-based or functional assay
human TREM-1 on cells [5] = target: T5, human TREM-1 on cells; experiment: cell-based or functional assay; remark: listed apart in the source

Binder	Kd (human TREM-1-Fc)	koff (human TREM-1-Fc) [s⁻¹]	kon (human TREM-1-Fc)	koff [1] [s⁻¹]	kon [1] [M⁻¹ s⁻¹]	Kd [2] [nM]	koff [2] [s⁻¹]	kon [2] [M⁻¹ s⁻¹]	koff [3] [s⁻¹]	IC50 of IL-6 production, primary human cells stimulated with plate-bound PGRP1 and PGN-ECndss (human TREM-1 on cells [4]) [pM]	IC50 of IL-8 production, stimulated whole blood, HTRF (human TREM-1 on cells [4]) [pM]	IC50 of IL-8 production, stimulated whole blood, intracellular cytokine staining (ICS) (human TREM-1 on cells [4]) [pM]	IC50 (pM), CHI3L1 RNA, whole blood, Soluble PGRP + Soluble PGN-Ecndss (human TREM-1 on cells [5]) [pM]	IC50 (pM), IL1b RNA, whole blood, Soluble PGRP + Soluble PGN-Ecndss (human TREM-1 on cells [5]) [pM]	IC50 (pM), IL6 RNA, whole blood, Soluble PGRP + Soluble PGN-Ecndss (human TREM-1 on cells [5]) [pM]
mAb 0318-IgG1-Aba (antibody, IgG1 constant region with K214R, C226S, C229S, P238S (EU); also called IgG1-Aba mod; FcAba-1) heavy: not shown light: DIVLTQSPDSLAVSLGERATINCRASQSVDTFDYSFLHWYQQKPGQPPKLLIYRASNLESGVPDRFSGSGSGTDFTLTISSLQAEDVAVYYCQQSNQDPYTFGQGTKLEIKRTVAAPSVFIFPPSDEQLKSGTASVVCLLNNFYPREAKVQWKVDNALQSGNSQESVTEQDSKDSTYSLSSTLTLSKADYEKHKVYACEVTHQGLSSPVTKSFNRGEC	0.899 nM	0.00145	1.62e+06 M⁻¹ s⁻¹												
mAb 0318-IgG1.3f (antibody, IgG1 constant region with L234A, L235E, G237A (EU)) heavy: EVQLVESGGGLVQPGGSLKLSCAASGFTFSTYAMHWVRQASGKGLEWVGRIRTKSSNYATYYAASVKGRFTISRDDSKNTAYLQMNSLKTEDTAVYYCTRDMGIRRQFAYWGQGTLVTVSSASTKGPSVFPLAPSSKSTSGGTAALGCLVKDYFPEPVTVSWNSGALTSGVHTFPAVLQSSGLYSLSSVVTVPSSSLGTQTYICNVNHKPSNTKVDKRVEPKSCDKTHTCPPCPAPEAEGAPSVFLFPPKPKDTLMISRTPEVTCVVVDVSHEDPEVKFNWYVDGVEVHNAKTKPREEQYNSTYRVVSVLTVLHQDWLNGKEYKCKVSNKALPAPIEKTISKAKGQPREPQVYTLPPSREEMTKNQVSLTCLVKGFYPSDIAVEWESNGQPENNYKTTPPVLDSDGSFFLYSKLTVDKSRWQQGNVFSCSVMHEALHNHYTQKSLSLSPGK light: DIVLTQSPDSLAVSLGERATINCRASQSVDTFDYSFLHWYQQKPGQPPKLLIYRASNLESGVPDRFSGSGSGTDFTLTISSLQAEDVAVYYCQQSNQDPYTFGQGTKLEIKRTVAAPSVFIFPPSDEQLKSGTASVVCLLNNFYPREAKVQWKVDNALQSGNSQESVTEQDSKDSTYSLSSTLTLSKADYEKHKVYACEVTHQGLSSPVTKSFNRGEC	0.85 nM	0.0014	1.65e+06 M⁻¹ s⁻¹	0.0014	400000	0.91	0.0013	1.4e+06	0.000103	~32	12	19.6	4.58	11.2	97.7
mAb 0318-IgG4-Aba (antibody, IgG4 CH1 with IgG1 CH2 and CH3, C226S, C229S, P238S (EU); also called IgG4-Aba mod; FcAba-4) heavy: not shown light: DIVLTQSPDSLAVSLGERATINCRASQSVDTFDYSFLHWYQQKPGQPPKLLIYRASNLESGVPDRFSGSGSGTDFTLTISSLQAEDVAVYYCQQSNQDPYTFGQGTKLEIKRTVAAPSVFIFPPSDEQLKSGTASVVCLLNNFYPREAKVQWKVDNALQSGNSQESVTEQDSKDSTYSLSSTLTLSKADYEKHKVYACEVTHQGLSSPVTKSFNRGEC	0.889 nM	0.00151	1.7e+06 M⁻¹ s⁻¹												
mAb 0318 (IgG4) (antibody, the rest is said to be IgG4) VH: not shown VL: DIVLTQSPDSLAVSLGERATINCRASQSVDTFDYSFLHWYQQKPGQPPKLLIYRASNLESGVPDRFSGSGSGTDFTLTISSLQAEDVAVYYCQQSNQDPYTFGQGTKLEIKRTVAAPSVFIFPPSDEQLKSGTASVVCLLNNFYPREAKVQWKVDNALQSGNSQESVTEQDSKDSTYSLSSTLTLSKADYEKHKVYACEVTHQGLSSPVTKSFNRGEC	1.01 nM and 0.98 nM	0.00143	1.42e+06 M⁻¹ s⁻¹ and 1.46e+06 M⁻¹ s⁻¹												
mAb 0318-IgG1.1f (antibody, IgG1 constant region with L234A, L235E, G237A, A330S, P331S (EU)) heavy: EVQLVESGGGLVQPGGSLKLSCAASGFTFSTYAMHWVRQASGKGLEWVGRIRTKSSNYATYYAASVKGRFTISRDDSKNTAYLQMNSLKTEDTAVYYCTRDMGIRRQFAYWGQGTLVTVSSASTKGPSVFPLAPSSKSTSGGTAALGCLVKDYFPEPVTVSWNSGALTSGVHTFPAVLQSSGLYSLSSVVTVPSSSLGTQTYICNVNHKPSNTKVDKRVEPKSCDKTHTCPPCPAPEAEGAPSVFLFPPKPKDTLMISRTPEVTCVVVDVSHEDPEVKFNWYVDGVEVHNAKTKPREEQYNSTYRVVSVLTVLHQDWLNGKEYKCKVSNKALPSSIEKTISKAKGQPREPQVYTLPPSREEMTKNQVSLTCLVKGFYPSDIAVEWESNGQPENNYKTTPPVLDSDGSFFLYSKLTVDKSRWQQGNVFSCSVMHEALHNHYTQKSLSLSPG light: DIVLTQSPDSLAVSLGERATINCRASQSVDTFDYSFLHWYQQKPGQPPKLLIYRASNLESGVPDRFSGSGSGTDFTLTISSLQAEDVAVYYCQQSNQDPYTFGQGTKLEIKRTVAAPSVFIFPPSDEQLKSGTASVVCLLNNFYPREAKVQWKVDNALQSGNSQESVTEQDSKDSTYSLSSTLTLSKADYEKHKVYACEVTHQGLSSPVTKSFNRGEC	0.866 nM	0.00142	1.64e+06 M⁻¹ s⁻¹												
